Assay results reported in ChEMBL document CHEMBL3886296, “Reactivators of organophosphorous inhibited acetylcholinesterase” (2015).

Chains of the proteins cited; added tags and fusions are not shown. Residues count along the entry.
UniProt P22303, 32-614 limits assumed: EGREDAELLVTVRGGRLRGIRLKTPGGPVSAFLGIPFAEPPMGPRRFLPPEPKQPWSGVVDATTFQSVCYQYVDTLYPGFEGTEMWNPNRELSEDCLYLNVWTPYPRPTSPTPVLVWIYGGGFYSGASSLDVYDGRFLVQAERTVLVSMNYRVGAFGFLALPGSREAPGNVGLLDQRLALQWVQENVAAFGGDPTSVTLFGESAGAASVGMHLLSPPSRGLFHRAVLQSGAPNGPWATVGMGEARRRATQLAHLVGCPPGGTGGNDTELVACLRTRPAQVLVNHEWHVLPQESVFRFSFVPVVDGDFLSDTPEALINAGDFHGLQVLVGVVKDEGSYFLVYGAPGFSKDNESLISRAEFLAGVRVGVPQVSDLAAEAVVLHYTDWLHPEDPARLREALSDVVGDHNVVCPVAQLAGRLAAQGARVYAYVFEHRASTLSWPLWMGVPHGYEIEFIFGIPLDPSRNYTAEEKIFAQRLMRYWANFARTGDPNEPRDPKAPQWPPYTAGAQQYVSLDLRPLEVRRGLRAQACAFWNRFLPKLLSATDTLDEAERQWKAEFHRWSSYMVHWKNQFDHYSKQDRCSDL

Target: Acetylcholinesterase (Homo sapiens, UniProt P22303)
Assay: Enzyme Inhibition Assay: Accordingly Ki is for uninhibited AChE. The higher the number, the less the native enzyme is inhibited by the reactivator compound, which is what one desires to achieve: reactivation of the inhibited AChE but little inhibition of native enzyme activity.

O=C(/C=N\O)c1ccc(OCC2CCN(Cc3ccccc3)CC2)nc1
Ki: 31 nM

COc1ccc(CN2CCCCC2COc2ccc(C(=O)/C=N\O)cn2)cc1OC (configuration not stated)
Ki: 233 nM
